Measured values published in article PMC3162150 (Cancer Chemotherapy and Pharmacology, 2011).

Test: 12-lead ECG monitoring during the core phase
Details: period 2 (ketoconazole only), N = 14

Structure (SMILES): CC(=O)N1CCN(c2ccc(OCC3COC(Cn4ccnc4)(c4ccc(Cl)cc4Cl)O3)cc2)CC1 (stereo not drawn) [ketoconazole, reference compound]
- QTcB increase >60 ms: 0 patients (%)
- ST segment depression: 0 patients (%)
- Sinus bradycardia: 1 (7%) patients (%)
